The results in this text go back to PubChem BioAssay AID1775 (NMMLSC, 2009).

Several values for one entry are separate records, joined by “and”; a condition that tells them apart may be missing. Identical values can stand only once. Only a part is listed here, and it is no random draw. Activity calls are given as the source filed them. Cut-off read from the data, not from the text of the source: active = fluorescence above about 47; inactive = the rest.

The assay can be described thus: green autofluorescence of compounds with avidin beads – biophysical, 488/530 nm, flow cytometry, artefact control, profiling panel (AID 1775). Particulars: compound fluorescence 488/530 nm, at 10 µM, hits give high values.
On to `Nc1cccc2ccc([As](=O)(O)O)cc12`, for which the fluorescence (KMESF) is inactive: 5.
To `CCN(N=Nc1nonc1N)c1nonc1N` belongs inactive: 16; to `O=P(Nc1nc2ccc(Cl)cc2s1)(c1ccccc1)c1ccccc1`, inactive: 7.
For `O=C(O)c1ccccc1[As](=O)(O)O`, the fluorescence (KMESF) was inactive: 5.
As for `CC(=O)Nc1ccc([As](=O)(O)O)cc1`, the fluorescence (KMESF) was inactive: 3.
As to `CCOP(=O)(Nc1ccccc1)OCC`, the fluorescence (KMESF) was inactive: 14 and inactive: 3.
For `Cc1cc(SC(NC(=O)c2ccc(F)cc2)C(Cl)(Cl)Cl)ncn1` (stereo not given), the fluorescence (KMESF) was inactive: 13.
`Cc1ccc(NP(=O)(Oc2ccccc2F)Oc2ccccc2F)nc1`: the fluorescence (KMESF) was inactive: 8.
With `Oc1ccccc1CNc1ccccn1`, the fluorescence (KMESF) was inactive: 13.
To `Cc1c2non([O-])c-2c(C)[n+](=O)[n+]1[O-]` belongs inactive: 26; to `O=C(NC(Sc1ccncn1)C(Cl)(Cl)Cl)c1ccccc1` (stereo not given), inactive: 3.
As to `CC(C)CC(=O)NC(Sc1ccc(Cl)cc1)C(Cl)(Cl)Cl` (stereo not given), the fluorescence (KMESF) is inactive: 8.
For the molecule `Nc1cc(N)c2nonc2c1[N+](=O)[O-]`, the fluorescence (KMESF) was inactive: 8.
On to `Cc1ccc(N/C(=N/P(=O)(N2CCOCC2)N2CCOCC2)N2CCOCC2)cc1`, for which the fluorescence (KMESF) is inactive: 15.
Regarding `NC(=O)c1cc([N+](=O)[O-])cc([N+](=O)[O-])c1N`, the fluorescence (KMESF) is inactive: 12.
As to `Clc1ccc(Cl)c(NC2=NCC(CBr)S2)c1` (stereo not given), the fluorescence (KMESF) is inactive: 6.
In the case of `CN1CCCC(OC(=O)C(c2ccccc2)c2ccccc2)C1` (stereo not given) it was inactive: 18.
To `COc1ccccc1OP(=O)(Nc1ccc(C)cn1)Oc1ccccc1OC` belongs inactive: 9; to `Cc1ccc(OP(=O)(Nc2nccs2)Oc2ccc(C)cc2)cc1`, inactive: 8.
Consider `CCN(/C(=N/P(=O)(N1CCOCC1)N1CCOCC1)N1CCOCC1)c1ccc(OC)cc1`, for which the fluorescence (KMESF) is inactive: 26.
Turning to `Nc1ccc([As](=O)(O)c2ccc(N)cc2)cc1`, the fluorescence (KMESF) was inactive: 2.
`C[N+]1=C2C=CC=CC=C2SC12C([N+](=O)[O-])=CC([N+](=O)[O-])=C[C-]2[N+](=O)[O-]` (stereo not given): the fluorescence (KMESF) is inactive: 6.
To `CC1CCN(C(=O)Oc2c(Cl)cc(Cl)c3cccnc23)CC1` belongs inactive: 11.
As for `CC(C)=N/N=C(\N)N[N+](=O)[O-]`, the fluorescence (KMESF) was inactive: 5.
Turning to `CN(C)C(=O)OCCc1n(C)cc[n+]1C`, the fluorescence (KMESF) was inactive: 3.
As to `COc1ccc(C2=NCC(CBr)S2)cc1` (stereo not given), the fluorescence (KMESF) is inactive: 10.
As for `Cc1ccc(NP(=O)(Oc2ccccc2)Oc2ccccc2)nc1`, the fluorescence (KMESF) is inactive: 11.
To `CCc1nc2c(n1)c1c(non1O)c1c2no[n+]1[O-]` belongs inactive: 17; to `O=[N+]([O-])c1cc([N+](=O)[O-])c(CCNc2ccccc2)c([N+](=O)[O-])c1`, inactive: 9; to `O=[N+]([O-])c1cccc2n[nH]nc12`, inactive: 5.
On to `CC(=O)N1C2C3N(C(C)=O)C1C1N(C(C)=O)C(C(N1C(C)=O)N3C(C)=O)N2C(C)=O`, for which the fluorescence (KMESF) was inactive: 4.
With `O=[N+]([O-])c1ncn(CCn2ncnc2[N+](=O)[O-])n1`, the fluorescence (KMESF) is inactive: 11.
For `CC(C)(C)C(=O)NC(Sc1ccncn1)C(Cl)(Cl)Cl` (stereo not given), the fluorescence (KMESF) was inactive: 5.
In the case of `O=C(O)CNc1ccc([As](=O)(O)O)cc1`, the fluorescence (KMESF) was inactive: 4.
With `O=[N+]([O-])c1cccc(NC2=NCC(CBr)S2)c1` (stereo not given), the fluorescence (KMESF) was inactive: 5.
Turning to `O=C(Nc1cc([As](=O)(O)O)ccc1O)c1ccccc1`, the fluorescence (KMESF) was inactive: 8.
On to `O=[As](O)(c1ccccc1)c1ccc(O)cc1`, for which the fluorescence (KMESF) is inactive: 6.
Consider `CC(=O)NC(SC(=S)N(C)C)C(Cl)(Cl)Cl` (stereo not given), for which the fluorescence (KMESF) is inactive: 11.
For the molecule `O=[N+]([O-])c1ncn(CCn2cnc([N+](=O)[O-])n2)n1`, the fluorescence (KMESF) is inactive: 10.
For `O=C(OC1CN2CCC1CC2)c1cccc(Cl)c1` (stereo not given), the fluorescence (KMESF) was inactive: 11.
With `Nc1ccc([As](=O)(O)c2ccc([N+](=O)[O-])cc2)cc1`, the fluorescence (KMESF) is inactive: 5.
In the case of `C(Cc1nn[nH]n1)Cc1nn[nH]n1`, the fluorescence (KMESF) is inactive: 7.
For the molecule `O=P(Nc1ccccn1)(c1ccc(Br)cc1)c1ccc(Br)cc1`, the fluorescence (KMESF) was inactive: 9.
Consider `O=P(Nc1nc2ccccc2s1)(c1ccccc1)c1ccccc1`, for which the fluorescence (KMESF) is inactive: 6.
Consider `C[C@H]1OP(=O)(Oc2ccccc2)[C@H](O)[C@H](O)[C@H]1N=[N+]=[N-]` (stereo not given in full), for which the fluorescence (KMESF) was inactive: 8.
To `CC(C)C(=O)NC(Sc1ccccc1)C(Cl)(Cl)Cl` (stereo not given) belongs inactive: 19; to `O=P(Nc1nccs1)(c1ccccc1)c1ccccc1`, inactive: 17; to `c1nnnn1CCn1cnnn1`, inactive: 17.
In the case of `C[C@@H]1C=CCP(=O)(Oc2ccccc2)O1` (stereo not given in full), the fluorescence (KMESF) was inactive: 8.
`C[C@H]1OP(=O)(Oc2ccccc2)C[C@@H]2O[C@@H]21` (stereo not given in full): the fluorescence (KMESF) is inactive: 9.
With `CC(=O)Nc1ccc([As](=O)(O)O)c(O)c1`, the fluorescence (KMESF) is inactive: 9.
Turning to `CC(=O)Nc1ccc(Oc2c([N+](=O)[O-])cc([N+](=O)[O-])cc2[N+](=O)[O-])cc1`, the fluorescence (KMESF) is inactive: 10.
Take `O=P1(Nc2nc3ccc(Cl)cc3s2)COc2ccccc2O1` (stereo not given): the fluorescence (KMESF) was inactive: 5.
On to `CCOc1ccc(C2=NCC(CBr)S2)cc1` (stereo not given), for which the fluorescence (KMESF) is inactive: 9.
To `CC(C)(C)C(=O)NC(Sc1ccccc1)C(Cl)(Cl)Cl` (stereo not given) belongs inactive: 9; to `CCC(=O)N1C2C3N(C(=O)CC)C1C1N(C(=O)CC)C(C(N1C(=O)CC)N3C(=O)CC)N2C(=O)CC`, inactive: 3.
In the case of `COC(=O)c1cc2c(s1)N=C(c1ccccc1)N(C)P2(=O)N1CCOCC1` (stereo not given) it was inactive: 20; in that of `CC(=O)NC(SC(=S)N(CC(C)C)CC(C)C)C(Cl)(Cl)Cl` (stereo not given), inactive: 10; in that of `Cc1ccc(OP(=O)(Nc2ccccn2)Oc2ccc(C)cc2)cc1`, inactive: 19.
With `Cc1ccccc1OP(=O)(Nc1ccccn1)Oc1ccccc1C`, the fluorescence (KMESF) was inactive: 7.
Consider `CN(C)C(=O)Oc1noc2ccccc12`, for which the fluorescence (KMESF) is inactive: 7.
On to `O=c1c2cc([N+](=O)[O-])ccc2[nH]c2c([N+](=O)[O-])cc([N+](=O)[O-])cc12`, for which the fluorescence (KMESF) was inactive: 9.
In the case of `c1ccc(-c2nn[nH]n2)c(-c2nn[nH]n2)c1` it was inactive: 6; in that of `Cc1ccc(NP(=O)(Oc2cccc(C)c2)Oc2cccc(C)c2)nc1`, inactive: 7; in that of `CCOC(=O)NC(Sc1ccccc1)C(Cl)(Cl)Cl` (stereo not given), inactive: 18.
Take `CCNC(=S)/N=C(\N)N[N+](=O)[O-]`: the fluorescence (KMESF) was inactive: 7.
For `O=C(NC1CCS(=O)(=O)C1)NP(=S)(Oc1ccccc1)Oc1ccccc1` (stereo not given), the fluorescence (KMESF) is inactive: 9.
As to `NC(=O)Nc1ccc([As](=O)(O)O)cc1`, the fluorescence (KMESF) was inactive: 9.
As for `CN(C(=O)Cc1ccccc1)[C@@H]1CC[C@]2(CCCO2)C[C@H]1N1CCCC1`, the fluorescence (KMESF) is inactive: 7.
In the case of `CCOP1(=S)c2c(C)nn(CCC#N)c2N=C(c2ccc(F)cc2)N1C` (stereo not given) it was inactive: 10.
